Reference: PMC7946679, “Selective cytotoxicity of epidithiodiketopiperazine DC1149B, produced by marine-derived Trichoderma lixii on the cancer cells adapted to glucose starvation” (Journal of Natural Medicines, 2019)
pIC50: −log10 of the molar value.

Amino acid sequences for entries named in this document (tags omitted). A change or cut given only in a name is not applied to a line headed by its entry.
UniProt P00829: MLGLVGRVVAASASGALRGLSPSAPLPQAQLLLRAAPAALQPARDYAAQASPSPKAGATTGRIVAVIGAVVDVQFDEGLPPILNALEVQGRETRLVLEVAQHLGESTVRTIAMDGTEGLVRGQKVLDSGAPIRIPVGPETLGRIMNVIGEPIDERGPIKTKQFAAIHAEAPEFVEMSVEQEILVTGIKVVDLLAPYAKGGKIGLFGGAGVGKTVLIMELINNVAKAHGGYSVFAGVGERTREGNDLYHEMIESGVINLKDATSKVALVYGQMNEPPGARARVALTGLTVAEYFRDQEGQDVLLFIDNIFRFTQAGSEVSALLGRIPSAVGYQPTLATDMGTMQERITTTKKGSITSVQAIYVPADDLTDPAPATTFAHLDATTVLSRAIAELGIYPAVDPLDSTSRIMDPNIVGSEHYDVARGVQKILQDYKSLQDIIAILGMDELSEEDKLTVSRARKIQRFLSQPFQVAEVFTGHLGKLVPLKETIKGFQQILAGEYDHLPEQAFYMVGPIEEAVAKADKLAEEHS
UniProt P00847: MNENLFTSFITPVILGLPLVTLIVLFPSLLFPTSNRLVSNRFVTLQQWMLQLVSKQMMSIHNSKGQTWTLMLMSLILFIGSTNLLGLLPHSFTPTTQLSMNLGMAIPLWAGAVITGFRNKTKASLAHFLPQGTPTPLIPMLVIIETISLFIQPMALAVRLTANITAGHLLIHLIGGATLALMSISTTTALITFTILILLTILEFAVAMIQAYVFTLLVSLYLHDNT
UniProt P19483: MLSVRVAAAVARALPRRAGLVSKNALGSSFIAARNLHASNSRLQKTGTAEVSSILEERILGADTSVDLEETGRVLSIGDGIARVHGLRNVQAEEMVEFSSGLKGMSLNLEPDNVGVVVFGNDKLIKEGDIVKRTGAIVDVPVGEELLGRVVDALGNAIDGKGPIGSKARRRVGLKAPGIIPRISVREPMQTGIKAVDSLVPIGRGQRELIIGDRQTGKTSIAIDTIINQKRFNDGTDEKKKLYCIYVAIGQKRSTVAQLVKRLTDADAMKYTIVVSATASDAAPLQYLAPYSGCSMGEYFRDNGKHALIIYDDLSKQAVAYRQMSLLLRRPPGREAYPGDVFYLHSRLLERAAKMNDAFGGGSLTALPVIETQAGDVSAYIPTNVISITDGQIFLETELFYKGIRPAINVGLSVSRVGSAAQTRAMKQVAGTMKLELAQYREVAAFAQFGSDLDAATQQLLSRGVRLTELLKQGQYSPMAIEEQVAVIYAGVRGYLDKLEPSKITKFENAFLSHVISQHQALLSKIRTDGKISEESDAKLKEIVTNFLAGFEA
UniProt P32876: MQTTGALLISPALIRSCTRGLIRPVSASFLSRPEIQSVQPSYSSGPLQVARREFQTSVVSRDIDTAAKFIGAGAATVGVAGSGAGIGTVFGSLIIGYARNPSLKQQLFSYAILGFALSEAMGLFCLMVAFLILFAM

Biological target: mitochondrial Complex V (Bos taurus, UniProt P00829+P00847+P19483+P32876)
Experiment: Mito Check Complex Activity Assay Kit, complex V
Type: biochemical
Settings: mitochondrial electron transport chain
Text: Dulbecco’s Modified Eagle’s medium (DMEM), WST-8 colorimetric reagent, and KCN were purchased from Nacalai Tesque, Inc. (Kyoto, Japan). Fetal bovine serum (FBS) and Dialyzed FBS were purchased from Equitech-Bio Inc. (Kerrville, TX, USA) and Thermo Fisher Scientific Inc. (Waltham, MA, USA), respectively. Anti-Akt, Anti-phosphorylated Akt, anti-GRP78, and anti-β-actin antibodies were obtained from Cell Signaling Technology, Inc. (Danvers, MA, USA). Horseradish peroxidase (HRP)-linked anti-rabbit IgG antibody (GE Healthcare Life Sciences, Buckinghamshire, UK) was used as secondary antibody. Mito Check Complex Activity Assay Kit (Cayman Chemical, Ann Arbor, MI, USA) was used to evaluate the effect of compound 1 on the mitochondrial complex I–V. Oxygen consumption of cells was measured by Oxygen Consumption Rate (OCR) Assay Kit (Cayman Chemical, Ann Arbor, MI, USA). Rotenone, thenoyltrifluoroacetone (TTFA), carbonyl cyanide m-chlorophenylhydrazone (CCCP), antimycin A, and oligomycin A were obtained from Tokyo Chemical Industry Co., LTD. […]
Antimycin A is a known inhibitor of complex III in the mitochondrial electron transport chain [17]. […] We also evaluated the effect of compound 1 on the oxygen consumption of PANC-1 cells cultured in the Glucose Deficient Medium.

**Q.** How did the pIC50 turn out when oligomycin A [reference compound] was run?
**A.** Its pIC50 is 6.44.
